Results from ChEMBL document CHEMBL5678810.
Calls of active or inactive are those of the source. The calls are words filed in the database; no cut-off is given here.

Amino acid sequences for entries named in this document (tags omitted). A change or cut given only in a name is not applied to a line headed by its entry.
UniProt Q9BX84: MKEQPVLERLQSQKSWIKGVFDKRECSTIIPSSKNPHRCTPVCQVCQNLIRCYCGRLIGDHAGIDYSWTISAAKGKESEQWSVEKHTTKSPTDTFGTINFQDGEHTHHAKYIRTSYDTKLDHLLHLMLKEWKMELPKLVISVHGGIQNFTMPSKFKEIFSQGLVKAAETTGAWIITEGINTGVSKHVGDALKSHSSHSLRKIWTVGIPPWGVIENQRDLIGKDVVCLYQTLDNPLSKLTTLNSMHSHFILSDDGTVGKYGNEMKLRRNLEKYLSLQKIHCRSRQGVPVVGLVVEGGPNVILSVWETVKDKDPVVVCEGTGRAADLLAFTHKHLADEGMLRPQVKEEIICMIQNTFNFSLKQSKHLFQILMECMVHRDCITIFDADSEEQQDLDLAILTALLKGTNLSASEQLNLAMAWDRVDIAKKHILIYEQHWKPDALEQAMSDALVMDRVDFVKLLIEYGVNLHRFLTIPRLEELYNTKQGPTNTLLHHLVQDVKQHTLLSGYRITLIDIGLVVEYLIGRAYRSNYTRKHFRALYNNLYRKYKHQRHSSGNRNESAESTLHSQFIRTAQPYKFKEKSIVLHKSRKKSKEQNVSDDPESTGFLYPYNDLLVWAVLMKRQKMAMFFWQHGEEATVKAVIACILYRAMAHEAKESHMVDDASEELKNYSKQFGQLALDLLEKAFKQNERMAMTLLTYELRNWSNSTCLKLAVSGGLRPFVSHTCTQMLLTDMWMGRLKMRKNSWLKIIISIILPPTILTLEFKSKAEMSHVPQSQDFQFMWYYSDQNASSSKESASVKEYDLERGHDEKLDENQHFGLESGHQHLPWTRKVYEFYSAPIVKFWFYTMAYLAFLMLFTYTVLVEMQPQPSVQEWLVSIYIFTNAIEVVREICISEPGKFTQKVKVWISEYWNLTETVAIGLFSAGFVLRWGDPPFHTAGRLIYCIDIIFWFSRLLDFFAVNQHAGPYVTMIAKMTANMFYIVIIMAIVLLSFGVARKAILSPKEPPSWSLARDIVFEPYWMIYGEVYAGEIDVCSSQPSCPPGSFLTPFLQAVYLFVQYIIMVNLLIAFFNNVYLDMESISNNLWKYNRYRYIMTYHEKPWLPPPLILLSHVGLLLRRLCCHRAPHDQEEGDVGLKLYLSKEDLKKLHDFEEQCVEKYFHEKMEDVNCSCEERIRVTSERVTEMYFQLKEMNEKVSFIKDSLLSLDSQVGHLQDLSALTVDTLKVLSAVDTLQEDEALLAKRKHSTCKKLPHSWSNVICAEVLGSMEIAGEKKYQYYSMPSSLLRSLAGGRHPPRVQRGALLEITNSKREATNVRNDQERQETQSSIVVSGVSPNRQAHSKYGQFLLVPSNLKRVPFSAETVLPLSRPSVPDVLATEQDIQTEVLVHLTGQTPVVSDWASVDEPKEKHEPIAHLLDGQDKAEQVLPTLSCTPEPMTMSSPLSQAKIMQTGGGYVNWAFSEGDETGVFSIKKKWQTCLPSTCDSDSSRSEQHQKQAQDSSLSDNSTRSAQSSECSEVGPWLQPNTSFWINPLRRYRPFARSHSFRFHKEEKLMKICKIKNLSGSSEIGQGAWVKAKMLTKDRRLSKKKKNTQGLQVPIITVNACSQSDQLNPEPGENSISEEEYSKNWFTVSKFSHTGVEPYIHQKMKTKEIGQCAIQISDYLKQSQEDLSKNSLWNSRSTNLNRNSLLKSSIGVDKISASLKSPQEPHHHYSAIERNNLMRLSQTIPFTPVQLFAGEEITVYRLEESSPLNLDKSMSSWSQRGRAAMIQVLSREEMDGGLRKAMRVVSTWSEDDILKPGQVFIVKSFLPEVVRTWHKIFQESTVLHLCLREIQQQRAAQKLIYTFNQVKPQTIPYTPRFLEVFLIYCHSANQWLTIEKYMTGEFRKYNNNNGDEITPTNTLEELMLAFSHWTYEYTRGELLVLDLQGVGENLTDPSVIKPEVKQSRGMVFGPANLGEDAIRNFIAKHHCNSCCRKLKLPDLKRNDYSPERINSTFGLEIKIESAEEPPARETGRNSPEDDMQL
UniProt Q06418: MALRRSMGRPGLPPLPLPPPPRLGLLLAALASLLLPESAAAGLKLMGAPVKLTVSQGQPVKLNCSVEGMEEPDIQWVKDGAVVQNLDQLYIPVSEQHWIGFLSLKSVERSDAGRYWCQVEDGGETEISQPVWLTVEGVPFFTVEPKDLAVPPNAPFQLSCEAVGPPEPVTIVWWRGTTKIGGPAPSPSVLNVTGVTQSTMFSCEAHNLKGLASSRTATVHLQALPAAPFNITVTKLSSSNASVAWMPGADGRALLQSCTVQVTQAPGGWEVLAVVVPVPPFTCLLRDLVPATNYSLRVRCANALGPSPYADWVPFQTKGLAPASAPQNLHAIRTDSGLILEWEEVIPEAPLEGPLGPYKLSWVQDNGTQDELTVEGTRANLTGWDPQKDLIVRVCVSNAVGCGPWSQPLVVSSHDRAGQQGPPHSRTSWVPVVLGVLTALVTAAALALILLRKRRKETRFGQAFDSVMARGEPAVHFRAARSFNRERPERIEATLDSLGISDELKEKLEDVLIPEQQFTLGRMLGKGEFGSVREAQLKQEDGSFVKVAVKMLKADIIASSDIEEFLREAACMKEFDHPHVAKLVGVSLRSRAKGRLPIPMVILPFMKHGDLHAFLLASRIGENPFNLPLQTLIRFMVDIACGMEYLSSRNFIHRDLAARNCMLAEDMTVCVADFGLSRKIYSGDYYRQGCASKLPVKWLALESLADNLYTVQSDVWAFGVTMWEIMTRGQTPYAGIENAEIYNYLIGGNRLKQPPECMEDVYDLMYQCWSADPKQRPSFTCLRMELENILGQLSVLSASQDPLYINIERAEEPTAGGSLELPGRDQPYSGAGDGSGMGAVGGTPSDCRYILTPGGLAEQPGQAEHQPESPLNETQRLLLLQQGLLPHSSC
UniProt Q9BYT3: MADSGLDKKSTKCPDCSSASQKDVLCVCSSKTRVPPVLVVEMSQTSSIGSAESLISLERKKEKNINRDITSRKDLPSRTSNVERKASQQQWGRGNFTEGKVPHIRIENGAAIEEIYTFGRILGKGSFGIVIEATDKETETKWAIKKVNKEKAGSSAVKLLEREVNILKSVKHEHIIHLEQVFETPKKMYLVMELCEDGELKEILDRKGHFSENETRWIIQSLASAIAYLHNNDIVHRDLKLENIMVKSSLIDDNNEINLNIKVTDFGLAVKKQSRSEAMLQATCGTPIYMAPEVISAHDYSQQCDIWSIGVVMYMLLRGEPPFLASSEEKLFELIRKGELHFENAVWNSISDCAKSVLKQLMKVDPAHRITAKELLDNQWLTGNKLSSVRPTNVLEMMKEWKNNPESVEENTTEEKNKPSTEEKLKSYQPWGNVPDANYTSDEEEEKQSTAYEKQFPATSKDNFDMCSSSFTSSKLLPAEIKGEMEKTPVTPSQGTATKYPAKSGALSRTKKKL
UniProt P36897: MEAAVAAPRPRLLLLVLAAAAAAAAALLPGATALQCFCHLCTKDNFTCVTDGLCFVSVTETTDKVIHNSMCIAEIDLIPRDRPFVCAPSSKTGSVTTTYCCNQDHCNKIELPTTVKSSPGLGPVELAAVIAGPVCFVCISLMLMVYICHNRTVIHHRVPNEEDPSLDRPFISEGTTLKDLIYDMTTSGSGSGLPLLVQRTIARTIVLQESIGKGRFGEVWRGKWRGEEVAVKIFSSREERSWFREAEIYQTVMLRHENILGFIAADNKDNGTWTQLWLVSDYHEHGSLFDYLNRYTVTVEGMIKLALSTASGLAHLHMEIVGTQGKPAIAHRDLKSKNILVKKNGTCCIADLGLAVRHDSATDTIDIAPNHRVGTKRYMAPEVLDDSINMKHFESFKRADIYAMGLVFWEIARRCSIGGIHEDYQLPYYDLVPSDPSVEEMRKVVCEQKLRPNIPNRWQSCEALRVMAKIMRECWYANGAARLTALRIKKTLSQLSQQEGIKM
UniProt Q9H3Y6: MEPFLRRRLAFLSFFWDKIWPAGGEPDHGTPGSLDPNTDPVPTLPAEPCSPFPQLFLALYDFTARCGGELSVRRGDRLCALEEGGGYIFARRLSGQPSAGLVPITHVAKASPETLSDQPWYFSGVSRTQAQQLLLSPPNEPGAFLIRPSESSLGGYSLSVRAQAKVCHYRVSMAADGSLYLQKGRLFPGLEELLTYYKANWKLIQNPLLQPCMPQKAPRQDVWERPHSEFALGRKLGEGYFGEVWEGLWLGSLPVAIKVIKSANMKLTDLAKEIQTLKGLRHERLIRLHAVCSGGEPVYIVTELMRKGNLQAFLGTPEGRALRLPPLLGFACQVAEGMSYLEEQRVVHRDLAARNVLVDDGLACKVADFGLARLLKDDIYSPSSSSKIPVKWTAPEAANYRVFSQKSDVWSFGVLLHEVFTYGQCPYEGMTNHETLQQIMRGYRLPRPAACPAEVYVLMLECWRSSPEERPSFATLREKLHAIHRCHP
UniProt P0C1S8: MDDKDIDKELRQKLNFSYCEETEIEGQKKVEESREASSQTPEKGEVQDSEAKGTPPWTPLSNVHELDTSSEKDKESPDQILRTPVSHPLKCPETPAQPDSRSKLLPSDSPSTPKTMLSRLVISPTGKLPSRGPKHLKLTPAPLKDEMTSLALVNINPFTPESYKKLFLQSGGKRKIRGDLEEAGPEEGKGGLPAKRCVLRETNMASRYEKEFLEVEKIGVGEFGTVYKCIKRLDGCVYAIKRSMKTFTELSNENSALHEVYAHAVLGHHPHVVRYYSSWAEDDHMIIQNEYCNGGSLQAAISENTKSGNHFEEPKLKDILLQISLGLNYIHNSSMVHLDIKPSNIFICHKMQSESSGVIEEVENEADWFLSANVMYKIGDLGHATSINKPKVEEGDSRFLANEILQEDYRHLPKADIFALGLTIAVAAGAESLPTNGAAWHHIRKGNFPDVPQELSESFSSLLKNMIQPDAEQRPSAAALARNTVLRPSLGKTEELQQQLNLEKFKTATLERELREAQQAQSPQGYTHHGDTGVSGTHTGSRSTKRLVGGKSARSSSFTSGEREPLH
UniProt P35968, whole entry: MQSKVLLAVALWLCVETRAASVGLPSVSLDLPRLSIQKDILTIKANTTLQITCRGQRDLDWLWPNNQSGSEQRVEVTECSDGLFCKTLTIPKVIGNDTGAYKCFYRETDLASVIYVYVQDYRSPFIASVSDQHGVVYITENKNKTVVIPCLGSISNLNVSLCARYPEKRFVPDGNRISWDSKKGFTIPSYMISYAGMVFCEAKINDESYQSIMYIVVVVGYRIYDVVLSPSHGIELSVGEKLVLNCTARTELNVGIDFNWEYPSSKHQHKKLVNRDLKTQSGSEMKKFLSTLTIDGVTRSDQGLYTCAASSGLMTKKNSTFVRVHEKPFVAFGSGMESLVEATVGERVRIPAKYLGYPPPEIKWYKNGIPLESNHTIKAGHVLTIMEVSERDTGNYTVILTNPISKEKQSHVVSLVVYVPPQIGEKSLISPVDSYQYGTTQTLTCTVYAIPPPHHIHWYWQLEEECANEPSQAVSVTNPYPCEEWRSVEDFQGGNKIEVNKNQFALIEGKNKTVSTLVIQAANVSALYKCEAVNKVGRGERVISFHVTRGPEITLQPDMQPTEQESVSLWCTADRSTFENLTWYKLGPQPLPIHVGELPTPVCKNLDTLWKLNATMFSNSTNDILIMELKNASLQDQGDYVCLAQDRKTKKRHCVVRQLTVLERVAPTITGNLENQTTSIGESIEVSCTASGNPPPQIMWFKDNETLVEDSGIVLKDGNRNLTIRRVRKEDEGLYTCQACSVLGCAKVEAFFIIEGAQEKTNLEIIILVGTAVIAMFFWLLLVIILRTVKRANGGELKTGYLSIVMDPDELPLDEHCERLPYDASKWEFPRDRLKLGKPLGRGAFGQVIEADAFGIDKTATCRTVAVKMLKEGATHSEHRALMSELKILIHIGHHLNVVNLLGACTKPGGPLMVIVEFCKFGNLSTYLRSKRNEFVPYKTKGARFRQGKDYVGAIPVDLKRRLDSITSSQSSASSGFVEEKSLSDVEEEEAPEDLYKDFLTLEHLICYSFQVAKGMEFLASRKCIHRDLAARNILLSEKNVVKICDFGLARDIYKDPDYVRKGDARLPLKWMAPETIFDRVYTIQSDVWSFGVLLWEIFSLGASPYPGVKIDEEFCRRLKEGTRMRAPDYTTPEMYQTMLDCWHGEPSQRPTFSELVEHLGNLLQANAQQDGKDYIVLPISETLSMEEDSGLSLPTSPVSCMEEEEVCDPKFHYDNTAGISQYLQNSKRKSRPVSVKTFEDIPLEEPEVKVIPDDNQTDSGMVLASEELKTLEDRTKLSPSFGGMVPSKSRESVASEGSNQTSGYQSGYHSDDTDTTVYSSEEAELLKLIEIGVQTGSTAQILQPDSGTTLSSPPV

How the values were obtained:
[1] = molecular target: Transient receptor potential cation channel subfamily M member 6 (Homo sapiens) (UniProt Q9BX84); experiment: Inhibition of T7 bacteriophage fused human TRPM6 at 10 uM by KINOMEscan analysis relative to control
[2] = molecular target: Tyrosine-protein kinase Yes (Homo sapiens) (UniProt P07947); experiment: Inhibition of T7 bacteriophage fused human YES at 10 uM by KINOMEscan analysis relative to control
[3] = molecular target: Serine/threonine-protein kinase ULK3 (Homo sapiens) (UniProt Q6PHR2); experiment: Inhibition of T7 bacteriophage fused human ULK3 at 10 uM by KINOMEscan analysis relative to control
[4] = molecular target: Protein odd-skipped-related 1 (Homo sapiens) (UniProt Q8TAX0); experiment: Inhibition of T7 bacteriophage fused human OSR1 at 10 uM by KINOMEscan analysis relative to control
[5] = molecular target: Tyrosine-protein kinase receptor TYRO3 (Homo sapiens) (UniProt Q06418); experiment: Inhibition of T7 bacteriophage fused human TYRO3 at 10 uM by KINOMEscan analysis relative to control
[6] = molecular target: NT-3 growth factor receptor (Homo sapiens) (UniProt Q16288); experiment: Inhibition of T7 bacteriophage fused human TRKC at 10 uM by KINOMEscan analysis relative to control
[7] = molecular target: Serine/threonine-protein kinase 35 (Homo sapiens) (UniProt Q8TDR2); experiment: Inhibition of T7 bacteriophage fused human STK35 at 10 uM by KINOMEscan analysis relative to control
[8] = molecular target: Ribosomal protein S6 kinase alpha-6 (Homo sapiens) (UniProt Q9UK32); experiment: Inhibition of T7 bacteriophage fused human N-terminal RSK4 Kinase domain-1 at 10 uM by KINOMEscan analysis relative to control
[9] = system: Leucine-rich repeat serine/threonine-protein kinase 2 (Homo sapiens), Q5S007 [A2016T]; experiment: Inhibition of drug-resistant GFP-tagged LRRK2 A2016T mutant phosphorylation at Ser935 residue (unknown origin) transfected in HEK293 cells upto 3 uM incubated for 90 mins by immunoblot analysis; type: cell-based
In short: (§1)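 HEK293 cells stably expressing GFP-LRRK2 variants, grown in DMEM with 10% FBS, 2 mM glutamine and penicillin/streptomycin. Compound added from DMSO stock (final DMSO ≤1%) at increasing concentrations for 90 min, DMSO control. Cells were PBS-washed and lysed in Triton X-100 lysis buffer. Lysates were run on 8% SDS-PAGE and immunoblotted with rabbit monoclonals against pSer910, pSer935 and total LRRK2.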

[10] = molecular target: Serine/threonine-protein kinase 33 (Homo sapiens) (UniProt Q9BYT3); experiment: Inhibition of T7 bacteriophage fused human STK33 at 10 uM by KINOMEscan analysis relative to control
[11] = molecular target: TGF-beta receptor type-1 (Homo sapiens) (UniProt P36897); experiment: Inhibition of T7 bacteriophage fused human TGFBR1 at 10 uM by KINOMEscan analysis relative to control
[12] = molecular target: Tyrosine-protein kinase Srms (Homo sapiens) (UniProt Q9H3Y6); experiment: Inhibition of T7 bacteriophage fused human SRMS at 10 uM by KINOMEscan analysis relative to control
[13] = molecular target: Ribosomal protein S6 kinase alpha-2 (Homo sapiens) (UniProt Q15349); experiment: Inhibition of T7 bacteriophage fused human N-terminal RSK3 Kinase domain-1 at 10 uM by KINOMEscan analysis relative to control
[14] = molecular target: Mitogen-activated protein kinase kinase kinase 7 (Homo sapiens) (UniProt O43318); experiment: Inhibition of T7 bacteriophage fused human TAK1 at 10 uM by KINOMEscan analysis relative to control
[15] = molecular target: Serine/threonine-protein kinase TAO2 (Homo sapiens) (UniProt Q9UL54); experiment: Inhibition of T7 bacteriophage fused human TAOK2 at 10 uM by KINOMEscan analysis relative to control
[16] = molecular target: SNF-related serine/threonine-protein kinase (Homo sapiens) (UniProt Q9NRH2); experiment: Inhibition of T7 bacteriophage fused human SNRK at 10 uM by KINOMEscan analysis relative to control
[17] = molecular target: TGF-beta receptor type-2 (Homo sapiens) (UniProt P37173); experiment: Inhibition of T7 bacteriophage fused human TGFBR2 at 10 uM by KINOMEscan analysis relative to control
[18] = molecular target: Serine/threonine-protein kinase TAO3 (Homo sapiens) (UniProt Q9H2K8); experiment: Inhibition of T7 bacteriophage fused human TAOK3 at 10 uM by KINOMEscan analysis relative to control
[19] = molecular target: Serine/threonine-protein kinase ULK1 (Homo sapiens) (UniProt O75385); experiment: Inhibition of T7 bacteriophage fused human ULK1 at 10 uM by KINOMEscan analysis relative to control
[20] = molecular target: STE20/SPS1-related proline-alanine-rich protein kinase (Homo sapiens) (UniProt Q9UEW8); experiment: Inhibition of T7 bacteriophage fused human STK39 at 10 uM by KINOMEscan analysis relative to control
[21] = molecular target: Serine/threonine-protein kinase VRK2 (Homo sapiens) (UniProt Q86Y07); experiment: Inhibition of T7 bacteriophage fused human VRK2 at 10 uM by KINOMEscan analysis relative to control
[22] = system: Leucine-rich repeat serine/threonine-protein kinase 2 (Homo sapiens), Q5S007 [A2016T]; experiment: Inhibition of drug-resistant GFP-tagged LRRK2 A2016T mutant phosphorylation at Ser910 residue (unknown origin) transfected in HEK293 cells upto 3 uM incubated for 90 mins by immunoblot analysis; type: cell-based; in short: as §1
[23] = molecular target: Non-receptor tyrosine-protein kinase TYK2 (Homo sapiens) (UniProt P29597); experiment: Inhibition of T7 bacteriophage fused human TYK2 JH2 pseudokinase domain at 10 uM by KINOMEscan analysis relative to control
[24] = molecular target: Serine/threonine-protein kinase Sgk3 (Homo sapiens) (UniProt Q96BR1); experiment: Inhibition of T7 bacteriophage fused human SGK3 at 10 uM by KINOMEscan analysis relative to control
[25] = molecular target: Ribosomal protein S6 kinase beta-1 (Homo sapiens) (UniProt P23443); experiment: Inhibition of T7 bacteriophage fused human S6K1 at 10 uM by KINOMEscan analysis relative to control
[26] = molecular target: Tyrosine-protein kinase ZAP-70 (Homo sapiens) (UniProt P43403); experiment: Inhibition of T7 bacteriophage fused human ZAP70 at 10 uM by KINOMEscan analysis relative to control
[27] = molecular target: Serine/threonine-protein kinase 32A (Homo sapiens) (UniProt Q8WU08); experiment: Inhibition of T7 bacteriophage fused human YANK1 at 10 uM by KINOMEscan analysis relative to control
[28] = molecular target: Wee1-like protein kinase 2 (Homo sapiens) (UniProt P0C1S8); experiment: Inhibition of T7 bacteriophage fused human WEE2 at 10 uM by KINOMEscan analysis relative to control
[29] = molecular target: Non-receptor tyrosine-protein kinase TNK1 (Homo sapiens) (UniProt Q13470); experiment: Inhibition of T7 bacteriophage fused human TNK1 at 10 uM by KINOMEscan analysis relative to control
[30] = molecular target: Vascular endothelial growth factor receptor 2 (Homo sapiens) (UniProt P35968); experiment: Inhibition of T7 bacteriophage fused human VEGFR2 at 10 uM by KINOMEscan analysis relative to control
[31] = molecular target: Serine/threonine-protein kinase 32C (Homo sapiens) (UniProt Q86UX6); experiment: Inhibition of T7 bacteriophage fused human YANK3 at 10 uM by KINOMEscan analysis relative to control
[32] = molecular target: Serine/threonine-protein kinase 32B (Homo sapiens) (UniProt Q9NY57); experiment: Inhibition of T7 bacteriophage fused human YANK2 at 10 uM by KINOMEscan analysis relative to control

COc1cc(C(=O)N2CCC(N3CCN(C)CC3)CC2)ccc1Nc1ncc2c(n1)N1CCc3cccc(c31)C(=O)N2C showed an inhibition [1] of 100%, an inhibition [2] of 100% and an inhibition [3] of 100%. For the same compound, the inhibition [4] was 100%, the inhibition [5] was 100% and the inhibition [6] was 100%. For the same compound, the inhibition [7] was 100%, the inhibition [8] was 100% and the inhibition [9] was “inactive”. For the same compound, the inhibition [10] was 2.4%, the inhibition [11] was 100% and the inhibition [12] was 100%. It also gave an inhibition [13] of 100%, an inhibition [14] of 100% and an inhibition [15] of 100%. For the same compound, the inhibition [16] was 100%, the inhibition [17] was 100% and the inhibition [18] was 100%. The inhibition [19] was 100%, the inhibition [20] was 100% and the inhibition [21] was 100%. The inhibition [22] was “inactive”, the inhibition [23] was 100% and the inhibition [24] was 100%. It also gave an inhibition [25] of 100%, an inhibition [26] of 100% and an inhibition [27] of 100%. It also gave an inhibition [28] of 100%, an inhibition [29] of 5% and an inhibition [30] of 100%. The inhibition [31] was 100% and the inhibition [32] was 100%.
